Reference: patent US8680150B2, “Small molecule hematopoietic growth factor mimetic compounds that activate hematopoietic growth factor receptors” (Ligand Pharmaceuticals, Inc., priority 2009, dated 2014)

System: UT7/EPO Cell line
Assay: Cell proliferation assay in UT7/EPO cell line (ViaLight Plus)
Format: cell-based, human
Settings: compound at 10 uM; efficacy relative to EPO (100%); UT7/EPO cells expressing endogenous EPO receptor, starved of EPO overnight; 72 hours at 37° C.
Protocol: The primary testing for the exemplified compounds was performed in UT7/EPO Cell line. UT7/EPO is human leukemia cell line, obtained from Dr. Norio Komatsu (Blood, Vol 82 (2), pp 456-464, 1993). These cells express endogenous EPO receptor and are dependant upon EPO for growth and proliferation. Briefly, the cells were starved of EPO overnight and plated in 96 or 384 well plates. The compounds were added to the cells at 10 uM concentration. The plates were then incubated at 37° C. for 72 hours. The proliferative effect of the compounds was measured by a commercially available kit from Lonza (ViaLight Plus).

COc1cccc(/C=N/NC(=O)c2cc(-c3ccc4ccccc4c3)n[nH]2)c1 [Compound 146, 3-(2-Naphthylpyrazolyl-5-)carboxyl(3-methoxybenzylidene)hydrazide]
Activity (%): 4.2%
